In ChEMBL document CHEMBL3352379, “Potent heterocyclic ligands for human complement c3a receptor” (J Med Chem, 2014):

Legend:
[1] = target: T1, C3a anaphylatoxin chemotactic receptor (Homo sapiens, UniProt Q16581); test: Agonist activity against C3AR in HMDMs assessed as increase in intracellular calcium release by Fluo-3 AM dye based FLIPR assay relative to 1 uM C3a
T1 sequence (Q16581 whole entry): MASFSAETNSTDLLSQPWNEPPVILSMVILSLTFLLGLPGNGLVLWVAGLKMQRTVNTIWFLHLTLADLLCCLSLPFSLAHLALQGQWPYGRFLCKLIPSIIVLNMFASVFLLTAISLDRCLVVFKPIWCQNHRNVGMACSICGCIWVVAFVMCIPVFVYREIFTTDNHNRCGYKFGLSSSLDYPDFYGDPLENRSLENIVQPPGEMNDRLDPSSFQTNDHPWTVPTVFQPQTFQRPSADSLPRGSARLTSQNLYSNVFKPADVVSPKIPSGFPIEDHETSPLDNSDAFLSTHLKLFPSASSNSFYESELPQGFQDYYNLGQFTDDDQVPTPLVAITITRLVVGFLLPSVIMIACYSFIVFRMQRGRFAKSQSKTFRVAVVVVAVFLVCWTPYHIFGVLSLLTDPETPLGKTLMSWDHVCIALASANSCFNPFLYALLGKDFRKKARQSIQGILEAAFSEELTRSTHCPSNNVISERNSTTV

[2] = target: T1, C3a anaphylatoxin chemotactic receptor; test: Displacement of [125I]-C3a from C3AR in HMDMs by scintillation counting method
Method in brief: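 Intact day-7 HMDMs (1.2 × 10^6 cells mL−1) incubated 60 min at room temperature with 80 pM [125I]-C3a and competitor in 50 mM Tris, 3 mM MgCl2, 0.1 mM CaCl2, 0.5% BSA, pH 7.4. Filtered on PEI-soaked GF/B, washed with cold Tris, scintillation-counted. Nonspecific binding with 1 μM unlabeled C3a; n ≥ 3.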

[3] = target: T2, C3a anaphylatoxin chemotactic receptor (Homo sapiens) (UniProt Q16581)
T2 sequence (whole entry): T1 sequence (Q16581 whole entry)

Row | Structure (SMILES) | EC50 [1] [nM] | IC50 [2] [nM] | pEC50 [3]
1 | N=C(N)NCCC[C@H](NC(=O)c1c[nH]c(C(c2ccccc2)c2ccccc2)n1)C(=O)O | 130 | 7 | –
2 | N=C(N)NCCC[C@H](NC(=O)c1coc(C(c2ccccc2)c2ccccc2)n1)C(=O)O | – | – | Active
3 | N=C(N)NCCC[C@H](NC(=O)c1ccc(C(c2ccccc2)c2ccccc2)o1)C(=O)O | – | 55 | –

The source made the active and inactive calls. The calls are words filed in the database; no cut-off is given here.
